Experimental data as given in patent publication US20250281513A1, “USE OF PSYCHEDELICS TO TREAT DEMENTIA” (priority 2021, published 2025).

Chains of the proteins cited; added tags and fusions are not shown. Lines headed by an entry give the natural chain unless they say otherwise; changes in a name come on top.
UniProt P05067: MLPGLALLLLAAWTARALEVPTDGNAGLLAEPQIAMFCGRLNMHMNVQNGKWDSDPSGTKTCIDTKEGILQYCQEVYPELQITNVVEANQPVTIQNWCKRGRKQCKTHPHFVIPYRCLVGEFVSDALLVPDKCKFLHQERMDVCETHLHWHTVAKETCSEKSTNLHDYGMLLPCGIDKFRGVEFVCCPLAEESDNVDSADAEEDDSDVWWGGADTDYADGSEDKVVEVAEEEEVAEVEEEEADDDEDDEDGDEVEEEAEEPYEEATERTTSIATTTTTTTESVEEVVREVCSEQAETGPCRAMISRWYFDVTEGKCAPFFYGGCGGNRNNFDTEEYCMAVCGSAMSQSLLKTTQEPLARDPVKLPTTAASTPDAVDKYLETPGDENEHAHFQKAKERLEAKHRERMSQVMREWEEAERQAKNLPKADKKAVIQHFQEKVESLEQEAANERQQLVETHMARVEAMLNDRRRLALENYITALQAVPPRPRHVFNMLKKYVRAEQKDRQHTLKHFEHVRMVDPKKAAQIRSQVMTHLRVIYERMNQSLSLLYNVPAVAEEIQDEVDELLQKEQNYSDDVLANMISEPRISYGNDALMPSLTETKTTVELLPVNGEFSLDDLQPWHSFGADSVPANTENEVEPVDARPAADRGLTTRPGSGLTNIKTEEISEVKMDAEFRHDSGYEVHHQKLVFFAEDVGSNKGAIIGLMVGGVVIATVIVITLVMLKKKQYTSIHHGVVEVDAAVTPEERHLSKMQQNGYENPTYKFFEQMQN

Columns and labels:
Format in all cases: cell-based, murine
[1] = tested on: ATP Binding Cassette Subfamily F Member 1 (ABCF1); experiment: qRT-PCR expression of ABCF1 in RAW264.7 cells post soluble amyloid beta treatment (Example 3); conditions: RAW cells, 10 uM
Description: (§1) • 1. Macrophage cell line RAW264.7 (ATCC) were grown to 80% confluency in growth media DMEM+10% FBS+glutamine) • 2. Confluent cells were treated with 10 uM of soluble amyloid beta (Aβ 1-16) for 2 hours and for 24 hours. Post treatment the cells were washed with PBS and cells were collected for RNA isolation followed by qRT-PCR to assess for expression levels of proteins involved in AD pathology; Hypoxia-inducible factor 1-alpha (Hif1-α), Melanotransferrin (p97), Tau protein (tau), 5-Hydroxytryptamine Receptor 2A (HTR2A), ATP Binding Cassette Subfamily F Member 1 (ABCF1) Analysis by qPCR:
(§2) • 1. Post treatment with amyloid beta at different time points, the reaction was stopped by removing the media with the drug. Cells were then collected and RNA was isolated from these • 2. After checking the quality of the RNA, cDNA was generated and qPCR was run with different target primers and GAPDH as the house keeping gene • 3. Normalized against the expression level of GAPDH, and further normalized against the expression level of untreated cells, the fold change expression level of different target genes was calculated and tabulated for all conditions.

Tau protein (tau) = experiment: qRT-PCR expression of Tau in RAW264.7 cells post soluble amyloid beta treatment (Example 3); conditions: RAW cells, 10 uM
Description: as §1, §2

Melanotransferrin (p97) = experiment: qRT-PCR expression of p97 in RAW264.7 cells post soluble amyloid beta treatment (Example 3); conditions: RAW cells, 10 uM, 2 hours
Description: as §1, §2

[2] = tested on: Hypoxia-inducible factor 1-alpha (Hif1-α); experiment: qRT-PCR expression of Hif-α in RAW264.7 cells post soluble amyloid beta treatment (Example 3); conditions: RAW cells, 10 uM, 24 hours
Description: as §1, §2

[3] = tested on: Hypoxia-inducible factor 1-alpha (Hif1-α); experiment: qRT-PCR expression of Hif-α in RAW264.7 cells post Aβ 1-16 or psychedelics (Example 4); conditions: RAW cells, 10 uM, 2 hours (FIG. 8)
Description: (§3) • 1. Macrophage cell line RAW264.7 (ATCC) were grown to 80% confluency in growth media (DMEM+10% FBS+glutamine). • 2. Confluent cells were treated with 10 uM of soluble amyloid beta (Aβ 1-16) for 2 hours or psychedelics at the prescribed concentrations at 2 hours post-stimulation or 24 or after restimualtion at 26 hours. Post treatment the cells were washed with PBS and cells were collected for RNA isolation followed by qRT-PCR to assess for expression levels of proteins involved in AD pathology; Hypoxia-inducible factor 1-alpha (Hif1-α), ATP Binding Cassette Subfamily F Member 1 (ABCF1). Analysis by qPCR: • 3. Post treatment with amyloid beta at different time points, the reaction was stopped by removing the media with the drug. Cells were then collected and RNA was isolated from these cells. • 4. After checking the quality of the RNA, cDNA was generated and qPCR was run with different target primers and GAPDH as the house keeping gene • 5. Normalized against the expression level of GAPDH, and further normalized against the expression level of untreated cells, the fold change expression level of different target genes was calculated and tabulated for all conditions.

[4] = tested on: 5-Hydroxytryptamine Receptor 2A (HTR2A); experiment: qRT-PCR expression of HTR2A in RAW264.7 cells post soluble amyloid beta treatment (Example 3); conditions: RAW cells, 10 uM
Description: as §1, §2

[5] = tested on: ATP Binding Cassette Subfamily F Member 1 (ABCF1); experiment: qRT-PCR expression of ABCF1 in RAW264.7 cells post Aβ 1-16 or psychedelics (Example 4); conditions: RAW cells, 10 uM, 2 hours (FIG. 8)
Description: as §3

Aβ 1-16: soluble amyloid beta (Aβ 1-16) used to treat RAW264.7 cells (DAEFRHDSGYEVHHQK; Amyloid-beta protein 42; UniProt P05067 672-687, looked up, fragment)
upregulation: ABCF1 expression compared to untreated cells ([1]; 2 hours) | ABCF1 expression compared to untreated cells ([1]; 24 hours) | Tau expression compared to untreated cells (Tau protein (tau); 2 hours) | Tau expression compared to untreated cells (Tau protein (tau); 24 hours) | p97 expression compared to untreated cells (Melanotransferrin (p97)) | Hif-α expression compared to untreated cells [2] | HIF-alpha expression compared to untreated cells [3] | HTR2A expression compared to untreated cells ([4]; 2 hours) | ABCF1 expression compared to untreated cells [5]
falls by half: ABCF1 expression level at 24 hours compared to the 2 hour timepoint ([1]; 24-hour treatment)
downregulation: HTR2A expression compared to untreated cells ([4]; 24 hours)
more than two folds: ABCF1 fold change expression compared to untreated cells ([1]; 2-hour treatment)
